pEC50: −log10 of the molar value.
target: T1, human GLP-IR (Homo sapiens, UniProt P43220); assay: GLP1 activity | EC50 (M)
From the text: Table printed on a drawing sheet, FIG. 1A Head of the field: GLP1 activity | EC50 (M) The patent's description of the figure: FIG. 1A-1B: Synthetic Peptides (FIG. 1A discloses SEQ ID NOS 3948 and 3275-3298 and FIG. 1B discloses SEQ ID NOS 3948 and 3299-3302, all respectively, in order of appearance) First copying reader's note: The first head row prints a reference sequence (residues at positions 7-35) above the position numbers; two fully empty rows separate groups of peptides. Where the first naming reader finds the target: passage: CHOK1 cells stably expressing the human GLP-IR were used to measure peptide or recombinant fusion-induced cAMP production

Chains of the proteins cited; added tags and fusions are not shown. Residues count along the entry.
UniProt P43220, 24-463 limits assumed: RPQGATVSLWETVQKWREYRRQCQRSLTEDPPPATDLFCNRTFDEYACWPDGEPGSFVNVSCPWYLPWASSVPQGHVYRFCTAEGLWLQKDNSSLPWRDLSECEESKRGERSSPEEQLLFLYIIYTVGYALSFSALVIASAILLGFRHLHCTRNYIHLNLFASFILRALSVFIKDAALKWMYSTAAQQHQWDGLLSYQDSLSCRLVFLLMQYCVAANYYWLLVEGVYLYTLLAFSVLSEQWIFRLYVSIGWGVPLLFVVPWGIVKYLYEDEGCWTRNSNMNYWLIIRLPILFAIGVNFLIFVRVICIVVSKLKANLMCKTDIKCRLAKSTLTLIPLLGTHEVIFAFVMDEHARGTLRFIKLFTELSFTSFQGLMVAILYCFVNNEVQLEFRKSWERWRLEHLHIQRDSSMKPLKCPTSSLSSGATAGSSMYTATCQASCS

SMILES | pEC50
CC[C@H](C)[C@H](NC(=O)[C@H](Cc1ccccc1)NC(=O)[C@H](CCC(=O)O)NC(=O)[C@H](CCCCN)NC(=O)[C@H](C)NC(=O)[C@H](C)NC(=O)[C@H](CCC(N)=O)NC(=O)CNC(=O)[C@H](CCC(=O)O)NC(=O)[C@H](CC(C)C)NC(=O)[C@H](Cc1ccc(O)cc1)NC(=O)[C@H](CO)NC(=O)[C@H](CO)NC(=O)[C@@H](NC(=O)[C@H](CC(=O)O)NC(=O)[C@H](CO)NC(=O)[C@@H](NC(=O)[C@H](Cc1ccccc1)NC(=O)[C@@H](NC(=O)CNC(=O)[C@H](CC(=O)O)NC(=O)CNC(=O)[C@@H](N)Cc1c[nH]cn1)[C@@H](C)O)[C@@H](C)O)C(C)C)C(=O)N[C@@H](C)C(=O)N[C@@H](Cc1c[nH]c2ccccc12)C(=O)N[C@@H](CC(C)C)C(=O)N[C@H](C(=O)N[C@@H](CCCCN)C(=O)NCC(=O)O)C(C)C [3166734#1, HGDGTFTSDVSSYLEGQAAKEFIAWLVKG] | 11.36
CC[C@H](C)[C@H](NC(=O)[C@H](Cc1ccccc1)NC(=O)[C@H](CCC(=O)O)NC(=O)[C@H](CCCCN)NC(=O)[C@H](C)NC(=O)[C@H](C)NC(=O)[C@H](CCC(N)=O)NC(=O)CNC(=O)[C@H](CCC(=O)O)NC(=O)[C@H](CC(C)C)NC(=O)[C@H](Cc1ccc(O)cc1)NC(=O)[C@H](CO)NC(=O)[C@H](CO)NC(=O)[C@@H](NC(=O)[C@H](CC(=O)O)NC(=O)[C@H](CO)NC(=O)[C@@H](NC(=O)[C@H](Cc1ccccc1)NC(=O)[C@@H](NC(=O)CNC(=O)[C@H](CC(C)C)NC(=O)CNC(=O)[C@@H](N)Cc1c[nH]cn1)[C@@H](C)O)[C@@H](C)O)C(C)C)C(=O)N[C@@H](C)C(=O)N[C@@H](Cc1c[nH]c2ccccc12)C(=O)N[C@@H](CC(C)C)C(=O)N[C@H](C(=O)N[C@@H](CCCCN)C(=O)NCC(=O)O)C(C)C [3166735#1, HGLGTFTSDVSSYLEGQAAKEFIAWLVKG] | 10.02
CC[C@H](C)[C@H](NC(=O)[C@H](Cc1ccccc1)NC(=O)[C@H](CCC(=O)O)NC(=O)[C@H](CCCCN)NC(=O)[C@H](C)NC(=O)[C@H](C)NC(=O)[C@H](CCC(N)=O)NC(=O)CNC(=O)[C@H](CCC(=O)O)NC(=O)[C@H](CC(C)C)NC(=O)[C@H](Cc1ccc(O)cc1)NC(=O)[C@H](CO)NC(=O)[C@H](CO)NC(=O)[C@@H](NC(=O)[C@H](CC(=O)O)NC(=O)[C@H](CO)NC(=O)[C@@H](NC(=O)[C@H](Cc1ccccc1)NC(=O)[C@@H](NC(=O)CNC(=O)[C@@H](NC(=O)CNC(=O)[C@@H](N)Cc1c[nH]cn1)C(C)C)[C@@H](C)O)[C@@H](C)O)C(C)C)C(=O)N[C@@H](C)C(=O)N[C@@H](Cc1c[nH]c2ccccc12)C(=O)N[C@@H](CC(C)C)C(=O)N[C@H](C(=O)N[C@@H](CCCCN)C(=O)NCC(=O)O)C(C)C [3166736#1, HGVGTFTSDVSSYLEGQAAKEFIAWLVKG] | 10.08
CC[C@H](C)[C@H](NC(=O)[C@H](Cc1ccccc1)NC(=O)[C@H](CCC(=O)O)NC(=O)[C@H](CCCCN)NC(=O)[C@H](C)NC(=O)[C@H](C)NC(=O)[C@H](CCC(N)=O)NC(=O)CNC(=O)[C@H](CCC(=O)O)NC(=O)[C@H](CC(C)C)NC(=O)[C@H](Cc1ccc(O)cc1)NC(=O)[C@H](CO)NC(=O)[C@H](CO)NC(=O)[C@@H](NC(=O)[C@H](CC(=O)O)NC(=O)[C@H](CO)NC(=O)[C@@H](NC(=O)[C@H](Cc1ccccc1)NC(=O)[C@@H](NC(=O)CNC(=O)[C@H](Cc1c[nH]cn1)NC(=O)CNC(=O)[C@@H](N)Cc1c[nH]cn1)[C@@H](C)O)[C@@H](C)O)C(C)C)C(=O)N[C@@H](C)C(=O)N[C@@H](Cc1c[nH]c2ccccc12)C(=O)N[C@@H](CC(C)C)C(=O)N[C@H](C(=O)N[C@@H](CCCCN)C(=O)NCC(=O)O)C(C)C [3166741#1, HGHGTFTSDVSSYLEGQAAKEFIAWLVKG] | 11.27

target: T1, human GLP-IR; assay: GLP1 activity | EC50 (pM)
From the text: Table printed on a drawing sheet, FIG. 1A
Head of the field: GLP1 activity | EC50 (pM)
The patent's description of the figure: FIG. 1A-1B: Synthetic Peptides (FIG. 1A discloses SEQ ID NOS 3948 and 3275-3298 and FIG. 1B discloses SEQ ID NOS 3948 and 3299-3302, all respectively, in order of appearance)
First copying reader's note: The first head row prints a reference sequence (residues at positions 7-35) above the position numbers; two fully empty rows separate groups of peptides.
Where the first naming reader finds the target: passage: CHOK1 cells stably expressing the human GLP-IR were used to measure peptide or recombinant fusion-induced cAMP production

SMILES | pEC50
CC[C@H](C)[C@H](NC(=O)[C@H](Cc1ccccc1)NC(=O)[C@H](CCC(=O)O)NC(=O)[C@H](CCCCN)NC(=O)[C@H](C)NC(=O)[C@H](C)NC(=O)[C@H](CCC(N)=O)NC(=O)CNC(=O)[C@H](CCC(=O)O)NC(=O)[C@H](CC(C)C)NC(=O)[C@H](Cc1ccc(O)cc1)NC(=O)[C@H](CO)NC(=O)[C@H](CO)NC(=O)[C@@H](NC(=O)[C@H](CC(=O)O)NC(=O)[C@H](CO)NC(=O)[C@@H](NC(=O)[C@H](Cc1ccccc1)NC(=O)[C@@H](NC(=O)CNC(=O)[C@H](CCCNC(=N)N)NC(=O)CNC(=O)[C@@H](N)Cc1c[nH]cn1)[C@@H](C)O)[C@@H](C)O)C(C)C)C(=O)N[C@@H](C)C(=O)N[C@@H](Cc1c[nH]c2ccccc12)C(=O)N[C@@H](CC(C)C)C(=O)N[C@H](C(=O)N[C@@H](CCCCN)C(=O)NCC(=O)O)C(C)C [3166748#1, HGRGTFTSDVSSYLEGQAAKEFIAWLVKG] | 8.86
CC[C@H](C)[C@H](NC(=O)[C@H](Cc1ccccc1)NC(=O)[C@H](CCC(=O)O)NC(=O)[C@H](CCCCN)NC(=O)[C@H](C)NC(=O)[C@H](C)NC(=O)[C@H](CCC(N)=O)NC(=O)CNC(=O)[C@H](CCC(=O)O)NC(=O)[C@H](CC(C)C)NC(=O)[C@H](Cc1ccc(O)cc1)NC(=O)[C@H](CO)NC(=O)[C@H](CO)NC(=O)[C@@H](NC(=O)[C@H](CC(=O)O)NC(=O)[C@H](CO)NC(=O)[C@@H](NC(=O)[C@H](Cc1ccccc1)NC(=O)[C@@H](NC(=O)[C@H](C)NC(=O)[C@H](CCC(=O)O)NC(=O)CNC(=O)[C@@H](N)Cc1c[nH]cn1)[C@@H](C)O)[C@@H](C)O)C(C)C)C(=O)N[C@@H](C)C(=O)N[C@@H](Cc1c[nH]c2ccccc12)C(=O)N[C@@H](CC(C)C)C(=O)N[C@H](C(=O)N[C@@H](CCCCN)C(=O)NCC(=O)O)C(C)C [3166964#1, HGEATFTSDVSSYLEGQAAKEFIAWLVKG] | 8.45
CC[C@H](C)[C@H](NC(=O)[C@H](Cc1ccccc1)NC(=O)[C@H](CCC(=O)O)NC(=O)[C@H](CCCCN)NC(=O)[C@H](C)NC(=O)[C@H](C)NC(=O)[C@H](CCC(N)=O)NC(=O)CNC(=O)[C@H](CCC(=O)O)NC(=O)[C@H](CC(C)C)NC(=O)[C@H](Cc1ccc(O)cc1)NC(=O)[C@H](CO)NC(=O)[C@H](CO)NC(=O)[C@@H](NC(=O)[C@H](CC(=O)O)NC(=O)[C@H](CO)NC(=O)[C@@H](NC(=O)[C@H](Cc1ccccc1)NC(=O)[C@@H](NC(=O)[C@H](CO)NC(=O)[C@H](CCC(=O)O)NC(=O)CNC(=O)[C@@H](N)Cc1c[nH]cn1)[C@@H](C)O)[C@@H](C)O)C(C)C)C(=O)N[C@@H](C)C(=O)N[C@@H](Cc1c[nH]c2ccccc12)C(=O)N[C@@H](CC(C)C)C(=O)N[C@H](C(=O)N[C@@H](CCCCN)C(=O)NCC(=O)O)C(C)C [3166965#1, HGESTFTSDVSSYLEGQAAKEFIAWLVKG] | 8.30
CC[C@H](C)[C@H](NC(=O)[C@H](Cc1ccccc1)NC(=O)[C@H](CCC(=O)O)NC(=O)[C@H](CCCCN)NC(=O)[C@H](C)NC(=O)[C@H](C)NC(=O)[C@H](CCC(N)=O)NC(=O)CNC(=O)[C@H](CCC(=O)O)NC(=O)[C@H](CC(C)C)NC(=O)[C@H](Cc1ccc(O)cc1)NC(=O)[C@H](CO)NC(=O)[C@H](CO)NC(=O)[C@@H](NC(=O)[C@H](CC(=O)O)NC(=O)[C@H](CO)NC(=O)[C@@H](NC(=O)[C@H](Cc1ccccc1)NC(=O)[C@@H](NC(=O)[C@H](CCCCN)NC(=O)[C@H](CCC(=O)O)NC(=O)CNC(=O)[C@@H](N)Cc1c[nH]cn1)[C@@H](C)O)[C@@H](C)O)C(C)C)C(=O)N[C@@H](C)C(=O)N[C@@H](Cc1c[nH]c2ccccc12)C(=O)N[C@@H](CC(C)C)C(=O)N[C@H](C(=O)N[C@@H](CCCCN)C(=O)NCC(=O)O)C(C)C [3166967#1, HGEKTFTSDVSSYLEGQAAKEFIAWLVKG] | ~4.33
CC[C@H](C)[C@H](NC(=O)[C@H](Cc1ccccc1)NC(=O)[C@H](CCC(=O)O)NC(=O)[C@H](CCCCN)NC(=O)[C@H](C)NC(=O)[C@H](C)NC(=O)[C@H](CCC(N)=O)NC(=O)CNC(=O)[C@H](CCC(=O)O)NC(=O)[C@H](CC(C)C)NC(=O)[C@H](Cc1ccc(O)cc1)NC(=O)[C@H](CO)NC(=O)[C@H](CO)NC(=O)[C@@H](NC(=O)[C@H](CC(=O)O)NC(=O)[C@H](CO)NC(=O)[C@@H](NC(=O)[C@H](Cc1ccccc1)NC(=O)[C@@H](NC(=O)[C@H](CCC(=O)O)NC(=O)[C@H](CCC(=O)O)NC(=O)CNC(=O)[C@@H](N)Cc1c[nH]cn1)[C@@H](C)O)[C@@H](C)O)C(C)C)C(=O)N[C@@H](C)C(=O)N[C@@H](Cc1c[nH]c2ccccc12)C(=O)N[C@@H](CC(C)C)C(=O)N[C@H](C(=O)N[C@@H](CCCCN)C(=O)NCC(=O)O)C(C)C [3166968#1, HGEETFTSDVSSYLEGQAAKEFIAWLVKG] | 7.01

From patent publication US12465652B2 (AMGEN INC., priority 2017, dated 2025)
